According to US20190309056A1 (VIB VZW, published 2019):

Assays:
[1] = biological target: T1, recombinant human Macrophage Migration Inhibitory Factor (MIF 2-115) (human, UniProt P14174 2-115); assay: SPR (BIAcore T200), rhMIF immobilised on CM5 chip, 1:1 Langmuir model
T1 construct: rhMIF bought from R&D Systems; The background describes MIF as a homotrimer but also as monomer, dimer or higher oligomers; In the cell assays (THP-1, human PBMC) the MIF is the cells' own; also called rhMIF; human MIF
Description: (§1) Surface plasmon resonance (SPR) experiments were performed on a BIAcore T200 system (GE Healthcare). Recombinant mouse MIF (rmMIF) or rhMIF (R&D systems) was immobilized on a CM5 chip (GE Healthcare). Briefly, the carboxylated dextran matrix was activated by injection of 0.2 M N-ethyl-N′-(3-[…]) carbodiimide (EDC) and 0.05 M N-hydroxysuccinimide (NHS) at a flow rate of 5 μl/min for 7 min. A rmMIF solution of 5 μg/ml prepared in coupling buffer (50 mM sodium acetate pH 4.0) was subsequently injected until 200 R.U. was immobilised. Next, the surface immobilisation was blocked by injection of 1 M ethanolamine hydrochloride for 7 min. As a reference, the surface in another flow cell was used and treated only with EDC, NHS, and ethanolamine. Data for the rmMIF-ISVD interaction were collected in the format of a kinetic titration (27). Sensorgrams for the anti-mMIF ISVDs/ISVD-constructs were collected at five different concentrations (½ serial dilution starting from 100, 150, 200 or 750 nM) plus a 0 concentration (injection of running buffer, i.e. HBS [10 mM Hepes (pH 7.5), 150 mM NaCl, 3.5 mM EDTA, 0.005% (v/v) Tween-20]) at a flow rate of 30 μl/min and a data collection rate of 10 Hz. Analyte injections were performed with association phases of 180 s and a dissociation phase of 600 s. This was followed by 5 pulses of 15 μl regeneration buffer (HBS+100 mM NaOH). Prior to data analysis, reference and zero concentration data were subtracted from the sensorgrams. The data were analyzed with a 1:1 Langmuir binding model (27). Data for the rhMIF-ISVD interaction were collected as described elsewhere (28) and analyzed with a 1:1 Langmuir binding model.

[2] = biological target: T2, recombinant mouse Macrophage Migration Inhibitory Factor (mouse, UniProt P34884 2-115); assay: SPR (BIAcore T200), rmMIF immobilised on CM5 chip, kinetic titration, 1:1 Langmuir model
T2 construct: rmMIF bought from R&D Systems; In the cell assays (RAW264.7, PECs/PEMs) the MIF is the cells' own; also called rmMIF; mouse MIF
Description: as §1

[3] = biological target: T2, recombinant mouse Macrophage Migration …; assay: SPR (BIAcore T200), rmMIF immobilised on CM5 chip, kinetic titration, 1:1 Langmuir model; apparent KD (bivalent)
Description: as §1, with “Analyte injections were performed with association phases of 180 s and a dissociation phase of 600 s. This was followed by 5 pulses of 15 μl regeneration buffer (HBS+100 mM NaOH). Prior to data analysis, reference and zero concentration data were subtracted from the sensorgrams.” left out

[4] = biological target: T2, recombinant mouse Macrophage Migration …; assay: SPR (BIAcore T200), rmMIF immobilised on CM5 chip, kinetic titration, 1:1 Langmuir model; apparent value (bivalent)
Description: as §1, with “Analyte injections were performed with association phases of 180 s and a dissociation phase of 600 s. This was followed by 5 pulses of 15 μl regeneration buffer (HBS+100 mM NaOH). Prior to data analysis, reference and zero concentration data were subtracted from the sensorgrams.” left out

| Binder | koff [1] | kon [1] | Kd [2] | koff [2] | kon [2] | Kd [3] | koff [4] | kon [4] |
| --- | --- | --- | --- | --- | --- | --- | --- | --- |
| anti-MIF ISVD B5 (VHH, Family I. Expressed from pAX100, purified by IMAC) VHH: EVQLVESGGGLVQAGGSLRLSCAASGRSFSNYIMGWFRQAPGKEREFVANISWNYGTTFYADSVKGRFTISGDSAKNTVYLQMTSLKPEDTAVYYCAARPVRGGRNFDYWGQGTQVTVSS | 0.00154 s⁻¹ | 41000 M⁻¹ s⁻¹ | 38.2 nM | 0.00542 s⁻¹ | 142000 M⁻¹ s⁻¹ |  |  |  |
| anti-MIF ISVD D4 (VHH, Family III; Expressed from pAX100, purified by IMAC) VHH: KVQLVESGGGLVQDGGSLRLSCAASGRTASIQVMGWFRQAPGKEREFVGNIGWNYGLTLYPDSVKGRFTISRDNAKNTVYLQMNNLKPEDTAVYYCAARIGTTTYDYWGQGTQVTVSS | 0.00153 s⁻¹ | 44000 M⁻¹ s⁻¹ | 27.7 nM | 0.00274 s⁻¹ | 99000 M⁻¹ s⁻¹ |  |  |  |
| anti-MIF ISVD F10 (VHH, Family III; Expressed from pAX100, purified by IMAC) VHH: EVQLVESGGGLVQDGGSLRLSCAASGRTASIQVMGWFRQAPGKEREFVGNIGWNYGLTLYPDSVKGRFTISRGNAKNAVYLQMNNLKPEDTAVYYCAARIGTTTYDYWGQGTQVTVSS |  |  | 228 nM | 0.00434 s⁻¹ | 19000 M⁻¹ s⁻¹ |  |  |  |
| E10-E10 (VHH, Single chain, bivalent: two E10 VHH joined by a 9GS linker; Expressed from pAX100; also called bivalent ISVD E10) EVQLVESGGGSVQAGDSLRLSCAASGRTLSNSIMGWFRQAPGKEREFVANINWSGTSRLYADSVKGRFTISRDNTKSTVYLQMNSLKPEDTAIYYCAARSSTMSATDYWGQGTQVTVSSGGGGSGGGSEVQLVESGGGSVQAGDSLRLSCAASGRTLSNSIMGWFRQAPGKEREFVANINWSGTSRLYADSVKGRFTISRDNTKSTVYLQMNSLKPEDTAIYYCAARSSTMSATDYWGQGTQVTVSS |  |  |  |  |  | 3.19 nM | 0.00112 s⁻¹ | 351000 M⁻¹ s⁻¹ |
| anti-MIF ISVD E5 (VHH, Family V. Expressed from pAX100, purified by IMAC; also called Nb E5) VHH: EVQLVESGGGLVHAGGSLRLSCAASGRTFSSYFMGWFRQAPGKAREFVANINFSGGTTVYASSVKGRFTISRDNSKNTVYLQMNSVKPEDTAVYYCVARGLTQDYDYWGQGTQVTVSS | 0.00074 s⁻¹ | 78000 M⁻¹ s⁻¹ | 11.7 nM | 0.00191 s⁻¹ | 163000 M⁻¹ s⁻¹ |  |  |  |
| anti-MIF ISVD H9 (VHH, Family V. Expressed from pAX100, purified by IMAC) VHH: EVQLVESGGGLVHAGGSLRLSCAASGRTSSTYFMGWFRQAPGKAREFVANINFSGGTTVYASSVKGRFTISRDNSKNTVYLQLNSVKPEDTAVYYCSARGLNQEYDFWGQGTQVTVSS | 0.00257 s⁻¹ | 32000 M⁻¹ s⁻¹ | 33 nM | 0.00231 s⁻¹ | 70000 M⁻¹ s⁻¹ |  |  |  |
| anti-MIF ISVD D12 (VHH, Family VI; Expressed from pAX100, purified by IMAC) VHH: EVQLVESGGGLVQAGGSLRLSCAASGRTISSYIVGWFRQAPGKEREFVANIGWSGSMPLYADSVKGRFTIFRDNAKNTVYLEMNKLKPEDTAVYYCAARGAGQLTNDYWGQGTQVTVSS | 0.00298 s⁻¹ | 18000 M⁻¹ s⁻¹ | 85.9 nM | 0.00511 s⁻¹ | 59000 M⁻¹ s⁻¹ |  |  |  |
| anti-MIF ISVD E10 (VHH, Family VII; Monovalent llama VHH expressed in E. coli from pAX100 and purified by IMAC (His-Trap) and gel filtration; also called Nb E10; monovalent E10) VHH: EVQLVESGGGSVQAGDSLRLSCAASGRTLSNSIMGWFRQAPGKEREFVANINWSGTSRLYADSVKGRFTISRDNTKSTVYLQMNSLKPEDTAIYYCAARSSTMSATDYWGQGTQVTVSS | 0.00632 s⁻¹ | 98000 M⁻¹ s⁻¹ | 53.1 nM | 0.00457 s⁻¹ | 86000 M⁻¹ s⁻¹ |  |  |  |

Second part, the binder after the results:

| koff [1] | kon [1] | Kd [2] | koff [2] | kon [2] | Kd [3] | koff [4] | kon [4] | Binder |
| --- | --- | --- | --- | --- | --- | --- | --- | --- |
| 0.00048 s⁻¹ | 17000 M⁻¹ s⁻¹ | 25.6 nM | 0.00297 s⁻¹ | 116000 M⁻¹ s⁻¹ |  |  |  | anti-MIF ISVD H5 (VHH, Family IV; Expressed from pAX100, purified by IMAC) VHH: EVQLVESGGGLVQPGGSLRLSCVASGFTFRTYAMSWVRQAPGKGSEWVSTINNGGGVTGYADSVEGRFTISRDNAKNTLYLQMNSLKPEDTAVYYCAKGTSRGQGTQVTVSS |
| 0.00161 s⁻¹ | 38000 M⁻¹ s⁻¹ | 15.5 nM | 0.00253 s⁻¹ | 163000 M⁻¹ s⁻¹ |  |  |  | anti-MIF ISVD C10 (VHH, Family II; Expressed from pAX100, purified by IMAC) VHH: EVQLVESGGGLVQAGGSLRLSCAASGRTSSIVAIGWFRQAPGKEREFVSNIGWKFGSTVYVDSVKGRFTISKDNAKNTVYLQMNSLKPEDTAVYRCAARSDGRVYDSWGQGTQVTVSS |
| 0.00092 s⁻¹ | 311000 M⁻¹ s⁻¹ | 14 nM | 0.002 s⁻¹ | 143000 M⁻¹ s⁻¹ |  |  |  | anti-MIF ISVD A2 (VHH, Family III; Expressed from pAX100, purified by IMAC) VHH: EVQLVESGGGLVQDGGSLRLSCAASGRTASIQVMGWFRQAPGKEREFVGNIGWNYGLTLYADPVKGRFTISRDNAKNTVYLQMNNLKPEDTAVYYCAARIGTITYDYWGQGTQVTVSS |
| 0.00124 s⁻¹ | 75000 M⁻¹ s⁻¹ | 12.5 nM | 0.00189 s⁻¹ | 151000 M⁻¹ s⁻¹ |  |  |  | anti-MIF ISVD D2 (VHH, Family III; Expressed from pAX100, purified by IMAC) VHH: EVQLVESGGGLVQDGGSLRLSCAASGRTASIHTMGWFRQAPGQERGFVGNIGWNYGLTLYADSVKGRFTISRDNAKNTVYLQMNNLKPEDTAVYYCAARIGTTPYDYWGQGTQVTVSS |
